This passage reports Km results from PMC8338929, “Acetylation turns leucine into a drug by membrane transporter switching” (Scientific Reports, 2021).

Broadly, the Km is the concentration of substrate that gives half-maximal velocity.

A short description of series [1]: N-acetyl-leucine metabolism in pooled mouse liver S9 fraction (LC-MS). The format is in vitro ADME. The note with it: mouse (CD1), 1.5 mg protein/mL, pH 7.4, 37 °C.
A short description of series [2]: N-acetyl-leucine metabolism in pooled human liver S9 fraction (LC-MS). The note with it: both sexes, 1.5 mg protein/mL, pH 7.4, 37 °C. The series is classed as in vitro ADME.

On to `[2H]C([2H])([2H])C([2H])(C([2H])([2H])[2H])C([2H])([2H])C([2H])(NC(C)=O)C(=O)O` (racemic) [N-acetyl-DL-[^2H10]leucine], for which the Km in series [1] turned out to be 69 µM; in series [2] it was 216 µM.
